Source: patent US11572350B1, “Benzothia(di)azepine compounds and their use as bile acid modulators” (Albireo AB, priority 2020, dated 2023)

Protein sequences, listed by entry. Tags and fused reporters are not part of them.
UniProt Q14973, whole entry: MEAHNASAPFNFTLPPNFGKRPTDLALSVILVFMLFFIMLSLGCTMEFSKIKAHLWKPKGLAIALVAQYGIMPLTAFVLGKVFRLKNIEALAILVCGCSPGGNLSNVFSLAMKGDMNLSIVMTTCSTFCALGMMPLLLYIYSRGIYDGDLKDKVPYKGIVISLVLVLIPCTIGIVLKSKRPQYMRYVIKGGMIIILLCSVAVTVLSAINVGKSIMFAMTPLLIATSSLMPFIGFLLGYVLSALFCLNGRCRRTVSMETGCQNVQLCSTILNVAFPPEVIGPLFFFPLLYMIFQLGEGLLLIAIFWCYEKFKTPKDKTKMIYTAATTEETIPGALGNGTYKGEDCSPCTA
UniProt Q12908, whole entry: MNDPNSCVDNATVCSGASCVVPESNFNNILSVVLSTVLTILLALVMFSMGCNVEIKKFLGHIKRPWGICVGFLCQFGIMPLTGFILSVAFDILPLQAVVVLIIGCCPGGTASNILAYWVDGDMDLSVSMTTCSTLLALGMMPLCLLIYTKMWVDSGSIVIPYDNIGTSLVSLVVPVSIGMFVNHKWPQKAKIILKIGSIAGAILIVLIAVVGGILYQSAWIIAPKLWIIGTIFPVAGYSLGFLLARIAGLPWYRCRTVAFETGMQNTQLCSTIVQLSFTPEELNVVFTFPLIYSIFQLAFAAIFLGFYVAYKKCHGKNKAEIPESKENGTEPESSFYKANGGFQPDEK

Assays:
human LBAT = human LBAT (Homo sapiens, UniProt Q14973); experiment: LBAT (h/m) assay: 3H-taurocholic acid uptake in human LBAT-overexpressing cells; settings: read-out: hLBAT IC50, 0.3 μM 3H-taurocholic acid and 7.5 μM cold taurocholic acid, 20 minutes
human IBAT = human IBAT (Homo sapiens, UniProt Q12908); experiment: IBAT (h/m) assay: 3H-taurocholic acid uptake in human IBAT-overexpressing cells; settings: read-out: hIBAT IC50, 0.25 μM 3H-taurocholic acid and 5 μM cold taurocholic acid, 20 minutes, highest test concentration 10 μM

`CCCCC1CN(c2ccc(F)cc2)c2cc(SCC)c(O/C=C/C(=O)O)cc2S(=O)(=O)N1` (single isomer, unassigned) [31] showed an IC50 (human LBAT) of 0.9 nM, a Papp A→B (Caco-2 cells) of 6.3 ×10⁻⁶ cm/s and a Papp B→A (Caco-2 cells) of 5.7 ×10⁻⁶ cm/s. It also gave an IC50 (human IBAT) of 1450 nM.

For `CCCCC1CN(c2ccc(F)cc2)c2cc(SCC)c(O/C=C/C(=O)O)cc2S(=O)(=O)N1` (single isomer, unassigned) [32], the IC50 (human LBAT) was 315 nM and the IC50 (human IBAT) was over 10000 nM.
